Measured values taken from PMC9980535 (2023).

T1: recombinant T18.1 T-antigen (backbone pilin) of group A Streptococcus (Streptococcus pyogenes (group A …, intramolecular isopeptide bonds within each Ig-like domain))
T1 chain: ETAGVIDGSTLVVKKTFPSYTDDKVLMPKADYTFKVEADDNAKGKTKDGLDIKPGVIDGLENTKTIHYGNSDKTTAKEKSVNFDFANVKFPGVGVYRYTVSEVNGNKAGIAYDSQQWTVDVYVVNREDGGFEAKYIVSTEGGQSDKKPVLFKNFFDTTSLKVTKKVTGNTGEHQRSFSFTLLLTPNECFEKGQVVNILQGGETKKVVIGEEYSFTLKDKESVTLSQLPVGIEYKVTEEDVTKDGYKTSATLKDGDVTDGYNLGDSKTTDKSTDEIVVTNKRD

B1: E3 chimeric mouse/human Fab (Fab, V domains shown)
VH: EVQLQQSGAELVKPGASVKLSCKASGYTFTSFYMYWVKQRPGQGLEWIGGINPSNGGANFNEKFKNKATLTVDKSSSTAYMQLSSLTSEDSAVYYCTRGFYYGHWYFDVWGAGTTVTVSA
VL: DIVMTQSTSSLSASLGDRVTISCRASQDISNSLNWYQQKPDGTVKLLIHYTSRLHSGVPSRFSGSGSGTDYSLTISNLEQEDIATYFCQQVNTLPLTFGAGTKLEIK
B2: E3 full-length chimeric IgG1 (mouse variable regions on a human IgG1 backbone) (antibody, V domains shown)
VH: B1 VH
VL: B1 VL

Target: T1, recombinant T18.1 T-antigen (backbone …)
Assay: ELISA

| Binder | EC50 |
| --- | --- |
| B1 | 3.1 nM |
| B2 | 0.07 nM |
